# Molecular target: T1, rat μ opioid receptor (Rattus norvegicus, UniProt P33535)
# The chains behind the UniProt entries cited, without tags or fusion partners.
# UniProt P33535, whole entry: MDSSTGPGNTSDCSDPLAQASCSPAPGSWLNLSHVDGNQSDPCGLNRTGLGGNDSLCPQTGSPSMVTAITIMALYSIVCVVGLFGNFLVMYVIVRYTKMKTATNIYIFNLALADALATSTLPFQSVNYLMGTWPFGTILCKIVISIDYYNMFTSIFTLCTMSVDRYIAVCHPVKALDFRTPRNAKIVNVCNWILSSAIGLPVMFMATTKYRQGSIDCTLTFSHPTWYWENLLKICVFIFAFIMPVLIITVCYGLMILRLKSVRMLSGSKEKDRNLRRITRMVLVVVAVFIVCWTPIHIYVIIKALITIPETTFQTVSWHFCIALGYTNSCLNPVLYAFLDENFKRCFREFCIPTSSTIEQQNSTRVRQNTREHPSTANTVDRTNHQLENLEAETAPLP
# T1 construct: expressed in transfected cells; host or cells: CHO cells, stably transfected; membranes
# Type: binding
substance,measurement,value
DAMGO [reference compound],displacement of [3H]diprenorphine,> 90%

# From paper PMC3896271 (Beilstein Journal of Organic Chemistry, 2013)
